Source: publication PMC9340777 (Journal of Medicinal Chemistry, 2022)
“And” between values parts separate entries of the source, which are not always exact repeats. Equal values may be shown once.

Test: Aqueous stability of monobasic prodrugs in pH 6.5 PBS (LC–MS)
Settings: pH 6.5 phosphate buffer, 37 °C, average of n = 2

For CC(OC(=O)N1CCC(OC(=O)C(O)(c2ccccc2)c2ccccc2)CC1)OC(=O)C(C)(C)N.Cl (stereo not drawn), the “PBS T1/2 (h) pH 6.5” value was 3.05 h.

With CC(OC(=O)CCN)OC(=O)N1CCC(OC(=O)C(O)(c2ccccc2)c2ccccc2)CC1.Cl (stereo not drawn) the “PBS T1/2 (h) pH 6.5” value was 7.3 h and 7.31 h.

For CC(OC(=O)[C@H](C)N)OC(=O)N1CCC(OC(=O)C(O)(c2ccccc2)c2ccccc2)CC1.Cl (stereo partly drawn), the “PBS T1/2 (h) pH 6.5” value was 1.71 h.

For CNCC(=O)OC(C)OC(=O)N1CCC(OC(=O)C(O)(c2ccccc2)c2ccccc2)CC1.Cl (stereo not drawn), the “PBS T1/2 (h) pH 6.5” value was 0.39 h.

With CC(OC(=O)CCCN)OC(=O)N1CCC(OC(=O)C(O)(c2ccccc2)c2ccccc2)CC1.Cl (stereo not drawn) the “PBS T1/2 (h) pH 6.5” value was 0.07 h.

In the case of CC[C@H](N)C(=O)OC(C)OC(=O)N1CCC(OC(=O)C(O)(c2ccccc2)c2ccccc2)CC1.Cl (stereo partly drawn), the “PBS T1/2 (h) pH 6.5” value was 2.93 h.
